Reference: PubChem BioAssay (EPA / NIEHS)
This is a selection; strong and weak results do not stand in their true shares. The source made the active and inactive calls. How the source made its calls: active means hit-call score of the fitted dose curve at least 0.9, where 1 is the maximum; inactive means score below 0.9.

Sequences of proteins named here, by UniProt entry; tags and fusion partners are left off.
UniProt P08684, whole entry: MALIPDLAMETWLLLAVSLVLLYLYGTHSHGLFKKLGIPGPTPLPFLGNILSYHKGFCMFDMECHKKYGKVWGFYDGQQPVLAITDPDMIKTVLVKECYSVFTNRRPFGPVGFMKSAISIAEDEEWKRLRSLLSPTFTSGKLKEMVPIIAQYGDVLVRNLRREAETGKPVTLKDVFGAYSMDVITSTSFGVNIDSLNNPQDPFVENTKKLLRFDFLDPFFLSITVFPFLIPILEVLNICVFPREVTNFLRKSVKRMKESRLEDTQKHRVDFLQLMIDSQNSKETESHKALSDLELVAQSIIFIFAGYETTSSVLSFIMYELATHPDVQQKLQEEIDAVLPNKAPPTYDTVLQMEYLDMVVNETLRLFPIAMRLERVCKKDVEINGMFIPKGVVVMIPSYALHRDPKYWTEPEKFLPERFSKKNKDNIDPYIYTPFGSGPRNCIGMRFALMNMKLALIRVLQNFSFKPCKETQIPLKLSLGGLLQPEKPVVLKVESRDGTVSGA
UniProt P24462, whole entry: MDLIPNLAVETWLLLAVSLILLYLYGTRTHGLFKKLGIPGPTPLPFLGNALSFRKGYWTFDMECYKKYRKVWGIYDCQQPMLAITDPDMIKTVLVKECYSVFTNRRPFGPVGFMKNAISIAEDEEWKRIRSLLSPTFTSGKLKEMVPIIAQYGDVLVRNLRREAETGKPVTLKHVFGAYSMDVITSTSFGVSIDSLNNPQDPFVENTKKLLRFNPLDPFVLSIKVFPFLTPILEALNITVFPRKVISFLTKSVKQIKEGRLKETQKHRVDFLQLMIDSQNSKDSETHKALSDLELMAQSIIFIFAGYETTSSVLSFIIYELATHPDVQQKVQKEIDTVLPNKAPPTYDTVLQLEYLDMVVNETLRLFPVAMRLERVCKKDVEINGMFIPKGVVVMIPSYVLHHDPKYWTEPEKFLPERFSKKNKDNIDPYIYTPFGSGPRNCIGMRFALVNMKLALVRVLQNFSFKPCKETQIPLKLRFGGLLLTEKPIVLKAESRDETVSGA

These compounds were tested on CYP2E1 (gene 1571) (assay: LTEA_HepaRG_CYP2E1: Life Technologies and Expression Analysis (LTEA) Assay for CYP2E1 using HepaRG (AID 2283485)). Details: actives raise or lower the signal; mRNA level, 48 h.
In short: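 Readout is qRT-PCR of CYP2E1 mRNA, normalized to three housekeeping genes and fitted bidirectionally against 0.5% DMSO. HepaRG cells were dosed 48 h at eight concentrations, highest 100 uM with half-log dilutions.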

| Compound | outcome |
| --- | --- |
| CC(C)OP(C)(=O)OC(C)C | inactive |
| Cc1cccc([N+](=O)[O-])c1[N+](=O)[O-] | inactive |
| O=[N+]([O-])c1cccc([N+](=O)[O-])c1 | inactive |

The compounds below were run on CYP4A11 (gene 1579) (assay: LTEA_HepaRG_CYP4A11: Life Technologies and Expression Analysis (LTEA) Assay for CYP4A11 using HepaRG (AID 2283486)). Details: actives raise or lower the signal; mRNA level, 48 h.
In short: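 CYP4A11 transcript levels were quantified by TaqMan qRT-PCR after HepaRG human liver cells were treated for 48 hours with test chemicals (top 100 uM, half-log dilutions, 0.5% DMSO). Gain or loss of signal was fitted relative to DMSO.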

| Compound | outcome |
| --- | --- |
| Cc1c([N+](=O)[O-])cccc1[N+](=O)[O-] | inactive |
| Cc1ccc([N+](=O)[O-])cc1[N+](=O)[O-] | inactive |
| CC(C)OP(C)(=O)OC(C)C | inactive |
| Cc1cccc([N+](=O)[O-])c1[N+](=O)[O-] | inactive |
| O=[N+]([O-])c1cccc([N+](=O)[O-])c1 | inactive |

The compounds below were run on Cytochrome P450 3A4 (Homo sapiens) (UniProt P08684) (assay: LTEA_HepaRG_CYP3A4: Life Technologies and Expression Analysis (LTEA) Assay for CYP3A4 using HepaRG (AID 2283487)). Details: actives raise or lower the signal; mRNA level, 48 h.
In short: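 In a human hepatic line (HepaRG), duplicate wells were treated 48 h with up to 100 uM chemical in half-log dilutions. Endpoint: CYP3A4 mRNA induction or loss relative to 0.5% DMSO vehicle, by qRT-PCR.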

| Compound | AC50 | outcome |
| --- | --- | --- |
| Cc1ccc([N+](=O)[O-])cc1[N+](=O)[O-] | active: 30.8 µM |  |
| CC(C)OP(C)(=O)OC(C)C |  | inactive |
| Cc1cccc([N+](=O)[O-])c1[N+](=O)[O-] |  | inactive |
| O=[N+]([O-])c1cccc([N+](=O)[O-])c1 |  | inactive |

Each compound was assayed on DNA damage-inducible transcript 3 (DDIT3), DDIT3 (gene 1649) (assay: LTEA_HepaRG_DDIT3: Life Technologies and Expression Analysis (LTEA) Assay for DNA damage-inducible transcript 3 (DDIT3) using HepaRG (AID 2283488)). Details: actives raise or lower the signal; mRNA level, 48 h.
In short: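 Cells are human HepaRG liver cells treated for 48 h with eight half-log concentrations up to 100 uM in 0.5% DMSO. Transcript levels come from qRT-PCR normalized to three housekeeping genes, with activity fitted in both directions relative to vehicle.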

| Compound | outcome |
| --- | --- |
| Cc1c([N+](=O)[O-])cccc1[N+](=O)[O-] | inactive |
| Cc1ccc([N+](=O)[O-])cc1[N+](=O)[O-] | inactive |
| CC(C)OP(C)(=O)OC(C)C | inactive |
| Cc1cccc([N+](=O)[O-])c1[N+](=O)[O-] | inactive |
| O=[N+]([O-])c1cccc([N+](=O)[O-])c1 | inactive |

These compounds were tested on Pro-epidermal growth factor (Homo sapiens) (UniProt P01133) (assay: LTEA_HepaRG_EGF: Life Technologies and Expression Analysis (LTEA) Assay for Epidermal growth factor (EGF) using HepaRG (AID 2283489)). Details: actives raise or lower the signal; mRNA level, 48 h.
In short: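 qRT-PCR readout of EGF transcript after 48 h chemical exposure of HepaRG cells; eight concentrations from 100 uM down in half-log steps, duplicate wells, 0.5% DMSO vehicle. Bidirectional curve fitting against DMSO baseline.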

| Compound | outcome |
| --- | --- |
| Cc1c([N+](=O)[O-])cccc1[N+](=O)[O-] | inactive |
| Cc1ccc([N+](=O)[O-])cc1[N+](=O)[O-] | inactive |
| CC(C)OP(C)(=O)OC(C)C | inactive |
| Cc1cccc([N+](=O)[O-])c1[N+](=O)[O-] | inactive |
| O=[N+]([O-])c1cccc([N+](=O)[O-])c1 | inactive |

These compounds were tested on Early growth response protein 1 (EGR1) transcription factor, EGR1 (gene 1958) (assay: LTEA_HepaRG_EGR1: Life Technologies and Expression Analysis (LTEA) Assay for Early growth response protein 1 (EGR1) transcription factor using HepaRG (AID 2283490)). Details: actives raise or lower the signal; mRNA level, 48 h.
In short: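 EGR1 transcript levels quantified by qRT-PCR (Fluidigm arrays) against three housekeeping genes after 48 h chemical exposure of HepaRG cells. Eight-point half-log series topping at 100 uM, 0.5% DMSO vehicle, analyzed for gain or loss.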

| Compound | outcome |
| --- | --- |
| Cc1c([N+](=O)[O-])cccc1[N+](=O)[O-] | inactive |
| Cc1ccc([N+](=O)[O-])cc1[N+](=O)[O-] | inactive |
| CC(C)OP(C)(=O)OC(C)C | inactive |
| Cc1cccc([N+](=O)[O-])c1[N+](=O)[O-] | inactive |
| O=[N+]([O-])c1cccc([N+](=O)[O-])c1 | inactive |

The compounds below were run on Ezrin (EZR), EZR (gene 7430) (assay: LTEA_HepaRG_EZR: Life Technologies and Expression Analysis (LTEA) Assay for Ezrin (EZR) using HepaRG (AID 2283491)). Details: actives raise or lower the signal; mRNA level, 48 h.
In short: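 Gain or loss of EZR mRNA is scored relative to 0.5% DMSO in human HepaRG cultures treated 48 h with test chemicals in duplicate, eight half-log concentrations from 100 uM.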

| Compound | outcome |
| --- | --- |
| Cc1c([N+](=O)[O-])cccc1[N+](=O)[O-] | inactive |
| Cc1ccc([N+](=O)[O-])cc1[N+](=O)[O-] | inactive |
| CC(C)OP(C)(=O)OC(C)C | inactive |
| Cc1cccc([N+](=O)[O-])c1[N+](=O)[O-] | inactive |
| O=[N+]([O-])c1cccc([N+](=O)[O-])c1 | inactive |

The compounds below were run on Cytochrome P450 3A7 (Homo sapiens) (UniProt P24462) (assay: LTEA_HepaRG_CYP3A7: Life Technologies and Expression Analysis (LTEA) Assay for CYP3A7 using HepaRG (AID 2283492)). Details: actives raise or lower the signal; mRNA level, 48 h.
In short: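 CYP3A7 transcript levels were read by TaqMan qRT-PCR on Fluidigm arrays after 48 h chemical exposure of human HepaRG cells, with housekeeping-gene normalisation. Eight half-log concentrations up to 100 uM in 0.5% DMSO were tested in duplicate.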

| Compound | outcome |
| --- | --- |
| Cc1c([N+](=O)[O-])cccc1[N+](=O)[O-] | inactive |
| Cc1ccc([N+](=O)[O-])cc1[N+](=O)[O-] | inactive |
| CC(C)OP(C)(=O)OC(C)C | inactive |
| Cc1cccc([N+](=O)[O-])c1[N+](=O)[O-] | inactive |
| O=[N+]([O-])c1cccc([N+](=O)[O-])c1 | inactive |
